Assay results reported in US11629335B2, “Methods of improving vector transduction efficiency into T lymphocytes” (CELGENE CORPORATION, priority 2014, dated 2023).

Test system: primary human T lymphocytes
Assay: Viability of primary human T lymphocytes after lentiviral transduction, by FACS
Details: 2-AP at 2.5 mM, 5 mM or 10 mM, with DD or PS, MOI 3

SMILES: Nc1ncc2[nH]cnc2n1 [2-AP, 2-Aminopurine]
- viability compared to cells cultured in the absence of 2-AP: not reduced
